As usually defined, the Ki is the dissociation constant of the complex between target and ligand, obtained from inhibition or displacement.

Results on one compound are retold here after ChEMBL document CHEMBL2321814, “Sulfocoumarins (1,2-benzoxathiine-2,2-dioxides): a class of potent and isoform-selective inhibitors of tumor-associated carbonic anhydrases” (J Med Chem, 2013).

The target of one test is Carbonic anhydrase 9 (Homo sapiens, UniProt Q16790).
In another test the target is Carbonic anhydrase 12 (Homo sapiens, UniProt O43570). In words: Inhibition of human recombinant transmembrane CA12 catalytic domain after 6 hrs by stopped-flow CO2 hydration method.

`O=c1ccc2ccccc2o1` [COUMARIN]: the Ki on Carbonic anhydrase 9 and on Carbonic anhydrase 12 was more than 100 µM each time.
